Assay [1] concerns the target T1, Soluble guanylate cyclase alpha1/beta1 complex (Homo sapiens) (UniProt Q02153+Q02108). The experiment in a line: Binding affinity to sGC subunit alpha-1/beta-1 catalytic domain (unknown origin) at 100 uM after 30 seconds by SPR analysis. Format: protein-complex assay. An outline of the steps: (§1)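 Catalytic-domain α1β1 construct, buffer-exchanged to HEPES pH 7.5/300 mM NaCl/5% glycerol, amine-coupled (30 μg/mL, acetate pH 5.5, 1 mM ATP, 1 mM GTP, 3 mM MgCl2, 1 mM DTT). Compounds at 100 μM in DMSO-containing running buffer, 25 °C. Injection and dissociation 30 s each, triplicate. Responses double-referenced, DMSO-corrected, control subtracted; occupancy is the fraction of immobilised sites bound, assuming 1:1 stoichiometry.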
On the technique in general: SPR reads the build-up and loss of mass on a sensor chip optically.

By UniProt entry, the sequences of proteins in these tests, tags left out. Where a name states a change or a piece, a line headed by the entry shows the natural chain unless it says otherwise.
UniProt Q02153: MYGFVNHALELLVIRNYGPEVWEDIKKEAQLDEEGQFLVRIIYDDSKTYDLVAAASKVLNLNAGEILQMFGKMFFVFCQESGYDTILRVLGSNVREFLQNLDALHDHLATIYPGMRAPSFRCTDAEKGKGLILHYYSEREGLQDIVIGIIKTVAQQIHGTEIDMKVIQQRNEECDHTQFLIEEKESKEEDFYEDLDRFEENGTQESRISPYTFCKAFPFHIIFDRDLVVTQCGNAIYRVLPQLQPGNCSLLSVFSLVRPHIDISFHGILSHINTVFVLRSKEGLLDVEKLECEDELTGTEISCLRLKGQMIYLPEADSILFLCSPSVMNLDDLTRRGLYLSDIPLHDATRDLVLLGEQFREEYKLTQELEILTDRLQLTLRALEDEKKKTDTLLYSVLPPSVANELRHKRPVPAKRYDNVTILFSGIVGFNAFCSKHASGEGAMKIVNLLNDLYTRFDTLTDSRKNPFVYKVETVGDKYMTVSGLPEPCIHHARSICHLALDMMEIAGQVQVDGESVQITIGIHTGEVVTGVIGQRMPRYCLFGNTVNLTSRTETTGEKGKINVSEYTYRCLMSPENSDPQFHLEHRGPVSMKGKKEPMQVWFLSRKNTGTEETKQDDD
UniProt Q02108: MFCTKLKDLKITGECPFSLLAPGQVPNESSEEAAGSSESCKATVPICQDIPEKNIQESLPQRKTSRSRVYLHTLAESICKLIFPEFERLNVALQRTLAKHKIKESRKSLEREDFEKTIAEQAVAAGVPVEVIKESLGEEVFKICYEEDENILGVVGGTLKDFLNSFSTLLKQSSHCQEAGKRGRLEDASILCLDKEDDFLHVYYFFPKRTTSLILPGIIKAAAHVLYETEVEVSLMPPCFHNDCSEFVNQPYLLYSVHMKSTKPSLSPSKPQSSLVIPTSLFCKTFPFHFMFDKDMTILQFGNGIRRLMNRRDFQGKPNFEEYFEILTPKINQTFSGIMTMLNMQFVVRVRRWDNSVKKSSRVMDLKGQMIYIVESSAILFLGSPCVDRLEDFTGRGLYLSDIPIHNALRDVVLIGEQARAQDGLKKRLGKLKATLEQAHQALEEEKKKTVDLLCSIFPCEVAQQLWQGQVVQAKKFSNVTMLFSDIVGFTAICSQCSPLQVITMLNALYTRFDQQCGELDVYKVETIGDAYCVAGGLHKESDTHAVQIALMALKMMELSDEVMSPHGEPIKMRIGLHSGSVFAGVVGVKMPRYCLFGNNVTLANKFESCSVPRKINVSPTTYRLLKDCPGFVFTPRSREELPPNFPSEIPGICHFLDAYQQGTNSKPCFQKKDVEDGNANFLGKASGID

Assay [2] addresses T1, Soluble guanylate cyclase alpha1/beta1 complex (Homo sapiens). The experiment in a line: Binding affinity to full-length human recombinant sGC subunit alpha-1/beta-1 at 100 uM after 30 seconds by SPR analysis. The class given is protein-complex assay. An outline of the steps:
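Full-length enzyme amine-coupled to CM5 chip at 50 μg/mL in sodium acetate pH 4.5 with 1 mM DTT, 2 mM ATP, 3 mM MgCl2; reference cell blank-immobilised. Compounds at 100 μM in running buffer (10 mM HEPES pH 7.4, 150 mM NaCl, 3 mM EDTA, 0.05% P20, 1 mM DTT, 10 mM MgCl2, 5% DMSO), 25 °C. Injection and dissociation 30 s each, triplicate.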

For assay [3] the target is unchanged. In words: Binding affinity to sGC subunit alpha-1/beta-1 catalytic domain (unknown origin) assessed as occupancy relative to control. The class given is protein-complex assay. An outline of the steps:
as §1

The target is the same in assay [4]. In words: Activation of human recombinant sGC subunit alpha-1/beta-1 using GTP as substrate assessed as cGMP production measured per ng of protein at 100 uM treated prior to DEA/NO addition measured after 2 mins by radioimmunoassay in presence of Mg2+. Format: protein-complex assay.
The target is the same in assay [5]. Conditions: 100 uM.

The source made the active and inactive calls. The calls are words filed in the database; no cut-off is given here.

As to `OCc1ccc(-c2nn(Cc3ccccc3)c3ccccc23)o1`, the RU in assay [1] amounted to 7.1; in assay [5], 18.4. Further, the result in assay [2] was Active. In addition, in assay [3], the Occ stood at 85%. The Activity in assay [4] amounted to 22.7 pmol.

The record behind these values is ChEMBL document CHEMBL3112547, “Surface plasmon resonance using the catalytic domain of soluble guanylate cyclase allows the detection of enzyme activators” (Bioorg Med Chem Lett, 2014).
